Test results from patent US20040191849A1, “Method for identifying fungicides” (priority 2002, published 2004).

Columns and labels:
[1] = biological target: T1, ribose-5-phosphate isomerase (RPI1) (Ustilago maydis, UniProt Q4P6V4); experiment: biochemical
T1 sequence (Q4P6V4 1-286): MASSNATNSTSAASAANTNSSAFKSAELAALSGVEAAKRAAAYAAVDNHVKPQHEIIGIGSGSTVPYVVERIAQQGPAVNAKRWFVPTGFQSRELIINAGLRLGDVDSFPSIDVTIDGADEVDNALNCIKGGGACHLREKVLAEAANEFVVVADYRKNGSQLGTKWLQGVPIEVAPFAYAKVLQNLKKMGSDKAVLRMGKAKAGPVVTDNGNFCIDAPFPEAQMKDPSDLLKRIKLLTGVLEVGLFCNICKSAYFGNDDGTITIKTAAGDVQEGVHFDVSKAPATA

[2] = biological target: T1, ribose-5-phosphate isomerase (RPI1); conditions: coupled assay carried out in the presence of various phosphate concentrations

Compound	IC50 [1] [µM]	inhibitory effect of phosphate on the reaction [2]
O=C1C=C(n2cccn2)c2ccccc2C1=O [Example 1]	20	–
COc1ccc(S(=O)(=O)N(C)C)cc1CCC(C)NCC1CC2(CCCC2)Oc2ccccc21.O=C(O)/C=C/C(=O)O (stereo not drawn) [Example 2]	20	–
phosphate	–	only very high phosphate concentrations show an inhibitory effecet
